The text below walks through data of paper PMC11652881.

What is called Kd is the concentration at which binding is half-saturated.

Test [1] deals with recombinant cardiac actin variant R312H (R312H-ACTC), as F-actin filaments (human). The test is described as follows: TIRF microscopy of labelled tropomyosin binding along actin filaments; rhodamine phalloidin-labelled ACTC filaments held on bovine ventricular HMM (0.5 mg/ml) on a nitrocellulose-coated coverslip; Alexa-Tm added while recording at 10 frames per second; fluorescence along a filament normalised from 1 to 100 percent; elongation rate = slope of the binding curve from 0 to 15 s.

Test [2] has as its target recombinant cardiac actin variant R312C (R312C-ACTC), as F-actin filaments (human). The description is as above.
In test [3] the target is recombinant cardiac actin variant R312H (R312H-ACTC), as F-actin filaments (human). Nature of the test: co-sedimentation; 7 uM F-actin with 0.1 to 2 uM tropomyosin in 100 mM KCl, 5 mM MgCl2, 20 mM Tris pH 8, 1 h at 25 C; 100,000 rpm 20 min (TLA100); Tm in the pellet by SDS-PAGE densitometry, normalised 0-100; fit to specific binding with Hill slope.
In test [4] the target is recombinant cardiac actin variant R312C (R312C-ACTC), as F-actin filaments (human). The test is described as above.

Turning to “Alexa488-labeled tropomyosin (bovine ventricular tropomyosin modified on Cys-190) (from UniProt Q5KR49 1-284) (natural protein)”, the Elongation Rate was found to be 3.4 s⁻¹ in test [1] and 1.2 s⁻¹ in test [2].

Take “tropomyosin purified from bovine ventricular ether powder (from UniProt Q5KR49 1-284)”: the Kd was 555 nM in test [3] and 505 nM in test [4].
